Results from PMC7586344, “Discovery of Novel pERK1/2- or β-Arrestin-Preferring 5-HT1A Receptor-Biased Agonists: Diversified Therapeutic-like versus Side Effect Profile” (Journal of Medicinal Chemistry, 2020).

Amino acid sequences for entries named in this document (tags omitted).
UniProt P08908, whole entry: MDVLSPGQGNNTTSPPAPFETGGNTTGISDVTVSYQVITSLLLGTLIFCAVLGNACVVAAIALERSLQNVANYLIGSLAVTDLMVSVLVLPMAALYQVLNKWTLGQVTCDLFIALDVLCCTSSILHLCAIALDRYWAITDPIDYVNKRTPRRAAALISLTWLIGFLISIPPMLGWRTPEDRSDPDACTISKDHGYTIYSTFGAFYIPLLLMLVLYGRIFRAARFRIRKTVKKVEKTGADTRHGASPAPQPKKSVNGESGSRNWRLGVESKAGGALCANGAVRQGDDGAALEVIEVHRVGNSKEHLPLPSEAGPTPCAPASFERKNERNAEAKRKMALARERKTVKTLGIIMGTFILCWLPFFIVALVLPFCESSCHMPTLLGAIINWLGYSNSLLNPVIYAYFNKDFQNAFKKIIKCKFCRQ

Target: 5-HT1A receptor (Homo sapiens, UniProt P08908)
Test: Serotonin 5-HT1A receptor radioligand binding assay
Set-up: expressed in transfected cells; host or cells: CHO
Details: pKi minus ClogD7.4, referring to the 5-HT1A receptor

LLE: 6.37
SMILES: Cc1cnc(CNCC2(F)CCN(C(=O)c3ccc(F)c(Cl)c3)CC2)nc1 [Compound 1, {[1-(3-chloro-4-fluorobenzoyl)-4-fluoropiperidin-4-yl]methyl}[(5-methylpyrimidin-2-yl)methyl]amine]
